Patent US5830452A, “Method for enhancing the anti-tumor therapeutic index of interleukin-2” (Chiron Corporation, priority 1994, dated 1998)

Columns and labels:
Meth A tumor = Meth A tumor mice, one bolus dose of IL-2 or PEG-IL-2 (peak height and shape of clearance curve), Table 1; type: in vivo
Description: Unmodified IL-2 and PEG modified IL-2 were administered to mice who were transplanted with a Meth A tumor. The technical details for the materials and methods are similar to those specifically set out in Zimmerman et al., 1989, Cancer Research, 49:6521-6528 which is hereby incorporated by reference in its entirety.
The purpose of this experiment was to define the peak height and shape of the IL-2 blood concentration curve. Unmodified IL-2 (IL-2) and PEG modified IL-2 (having apparent molecular weights of 95 kD and 160 kD) were given to the mice in one bolus dose. […] Consequently, one can determine the effect of dose and duration by administering IL-2 and PEG-IL-2 molecules that will remain in the body for varying lengths of time.
PEG modified IL-2 (160 kD apparent molecular weight) was also administered to the mice. As shown in Table 5(B), four different treatment schedules were used: Q7D×2, Q4D×3, Q3D×4, and Q2D×5. The 3 total dose levels of 50, 25 or 12.5 mg/kg PEG-IL-2 were based on preliminary single dose studies. A single i.v. dose of PEG-IL-2 at 50, 25 or 12.5 mg/kg was lethal in 5/5, 2/5, or 0/5 Meth A bearing mice, respectively. When these same total doses were divided and delivered by the various schedules, the toxicity of the treatments was schedule dependent. […] The other combinations of dose and schedule were not lethal, with the exception of the 25 mg/kg dose on the Q2D×5 schedule (Table 5(B)). As discussed below, this dependence on the frequency of administration to produce the lethality is related to the minimum plasma concentration of L-2 attained between doses (i.e., the trough).

murine tumor = details: versus IL-2; cited from earlier work

| Substance | % TGI (Meth A tumor; 24 mg/kg single bolus) [%] | Cures (Meth A tumor; 24 mg/kg single bolus) | % TGI (Meth A tumor; 48 mg/kg single bolus) [%] | Cures (Meth A tumor; 48 mg/kg single bolus) | % TGI (Meth A tumor; 60 mg/kg single bolus) [%] | Cures (Meth A tumor; 60 mg/kg single bolus) | toxicity (Meth A tumor; up to 60 mg/kg) | increase in total area under the plasma curve (murine tumor) |
| --- | --- | --- | --- | --- | --- | --- | --- | --- |
| 95 kD PEG IL-2: PEG modified IL-2 having apparent molecular weight of 95 kD | 46 | 0/5 | 82 | 0/5 | 93 | 3/5 | not toxic |  |
| PEGylated IL-2: IL-2 covalently modified with polyethylene glycol (Katre et al., Zimmerman et al.) [reference compound] |  |  |  |  |  |  |  | 15-20 -fold |
